Laboratory results taken from patent US20200246284A1 (Academia Sinica, priority 2015, published 2020).
pIC50: −log10 of the molar value.

Test system: cord blood hematopoietic progenitors (CD34+ cells, CFC)
Assay: Cytotoxicity normal tissue 72 hr (Table 27)

N.N.[Cl][Pt][Cl] [Cisplatin]
pIC50: 5.22

CCc1c2c(nc3ccc(O)cc13)-c1cc3c(c(=O)n1C2)COC(=O)[C@]3(O)CC [SN-38]
pIC50: 5.15
